The values below come from ChEMBL document CHEMBL1124426.

For the assay, the species on record is Oryctolagus cuniculus. The assay is described as follows: Percentage of respirations per minute after treatment with morphine when compared to control in rabbit.

Consider `C=CCN1CC[C@]23c4c5ccc(O)c4O[C@H]2C(=O)CC[C@@]3(O)[C@H]1C5`, for which the Reversal came to 30%.
